{"source": "patent US5124314A", "about": "“Pharmaceutical compositions containing amylin” (Amylin Pharmaceuticals, Inc., priority 1987, dated 1992)", "origin": "cited, not measured here", "key": {"islet B cells": {"system": "islet B cells", "conditions": "a number of model systems"}, "rats": {"system": "rats", "conditions": "administered to rats"}}}
{"substance": "CGRP: calcitonin gene related peptide, structurally similar to amylin (46% identity with human CGRP-2) (ACDTATCVTHRLAGLLSRSGGVVKNNFVPTNVGSKAF; Calcitonin gene-related peptide 1; UniProt P06881 83-119, looked up)", "values": [{"measurement": "rate of glucose induced insulin secretion", "setting": "islet B cells", "result": "modulate the rate of glucose induced insulin secretion"}, {"measurement": "effect on blood catecholamine levels", "setting": "rats", "result": "significant effects"}, {"measurement": "effect on blood pressure", "setting": "rats", "result": "significant effects"}]}
